What is called EC50 is the concentration that produces a half-maximal response.

Amino acid sequences for entries named in this document (tags omitted).
UniProt P28223, whole entry: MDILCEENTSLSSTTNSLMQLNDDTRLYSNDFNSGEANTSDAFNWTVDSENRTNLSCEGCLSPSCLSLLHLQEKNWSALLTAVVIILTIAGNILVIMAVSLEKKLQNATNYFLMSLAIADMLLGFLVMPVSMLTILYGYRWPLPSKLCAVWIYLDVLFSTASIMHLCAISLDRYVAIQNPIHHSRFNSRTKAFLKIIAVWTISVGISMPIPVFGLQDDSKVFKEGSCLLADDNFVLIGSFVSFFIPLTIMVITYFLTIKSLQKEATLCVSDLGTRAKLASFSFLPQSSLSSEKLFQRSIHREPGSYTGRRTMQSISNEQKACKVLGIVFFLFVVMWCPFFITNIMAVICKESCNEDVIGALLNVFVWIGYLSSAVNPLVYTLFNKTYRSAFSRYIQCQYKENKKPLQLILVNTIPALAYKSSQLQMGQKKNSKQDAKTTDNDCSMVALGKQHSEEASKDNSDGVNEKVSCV
UniProt P10635, whole entry: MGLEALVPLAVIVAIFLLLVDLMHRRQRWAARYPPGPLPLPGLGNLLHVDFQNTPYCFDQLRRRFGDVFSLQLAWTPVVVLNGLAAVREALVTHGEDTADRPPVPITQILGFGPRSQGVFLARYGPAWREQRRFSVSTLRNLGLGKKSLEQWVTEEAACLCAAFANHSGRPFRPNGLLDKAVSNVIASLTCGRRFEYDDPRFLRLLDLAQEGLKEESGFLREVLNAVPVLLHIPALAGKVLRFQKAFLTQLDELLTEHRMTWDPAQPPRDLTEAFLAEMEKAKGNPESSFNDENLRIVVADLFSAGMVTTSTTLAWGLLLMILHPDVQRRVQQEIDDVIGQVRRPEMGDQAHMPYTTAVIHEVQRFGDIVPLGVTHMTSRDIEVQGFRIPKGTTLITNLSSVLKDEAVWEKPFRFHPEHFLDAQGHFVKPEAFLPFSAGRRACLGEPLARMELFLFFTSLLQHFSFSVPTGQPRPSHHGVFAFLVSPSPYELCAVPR
UniProt P41595, whole entry: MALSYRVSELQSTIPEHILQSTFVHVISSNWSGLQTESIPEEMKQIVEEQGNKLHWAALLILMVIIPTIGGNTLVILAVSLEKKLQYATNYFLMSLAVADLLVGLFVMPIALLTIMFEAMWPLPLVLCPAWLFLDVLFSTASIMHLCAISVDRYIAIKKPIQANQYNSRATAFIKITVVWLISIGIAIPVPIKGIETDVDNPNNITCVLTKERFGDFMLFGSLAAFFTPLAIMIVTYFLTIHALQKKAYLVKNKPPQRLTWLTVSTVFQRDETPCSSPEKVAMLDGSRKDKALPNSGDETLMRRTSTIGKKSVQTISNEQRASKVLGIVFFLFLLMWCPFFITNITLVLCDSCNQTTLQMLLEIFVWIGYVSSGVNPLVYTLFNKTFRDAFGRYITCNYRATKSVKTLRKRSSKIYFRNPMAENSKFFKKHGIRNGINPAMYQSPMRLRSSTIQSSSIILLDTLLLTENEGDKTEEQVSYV

Where “and” joins values, the source holds several entries; their conditions need not be identical. Equal values may be shown once.

One series has as its target human 5-HT2A receptor (Homo sapiens, UniProt P28223). To be noted: Gq-dependent calcium flux, nearly full agonist; ref Sherwood et al., 2020; cited from earlier work.
A further series has as its target T1, recombinant CYP2D6 (Homo sapiens, UniProt P10635).
T1 construct: purchased Corning Life Sciences B.V
The series can be described thus: Incubation with recombinant CYP2D6 enzymes. The series is classed as in vitro ADME. To be noted: 1,000 nM psilocin. As to the method:
Corning UltraPool human liver microsomes (HLM) 150 (20 mg/mL), human intestinal microsomes (HIM) pool (10 mg/mL) as well as recombinant human CYP enzymes (with P450 oxidoreductase, OR) including CYP1A2+OR (0.5 nmol), CYP2B6+OR (0.5 nmol), CYP2C8+OR (1.0 nmol), CYP2C9*1+OR (1 nmol), CYP2C19+OR (0.5 nmol), CYP2D6*1+OR (0.5 nmol), CYP2E1+OR + cytochrome b5 (1 nmol), CYP3A4+OR + cytochrome b5 (0.5 nmol), MAO-A (5 mg/mL), MAO-B (5 mg/mL), and UGT1A10 (5 mg/mL) were purchased from Corning Life Sciences B.V (Amsterdam, Netherlands). All microsomes and recombinant enzyme solutions were aliquoted and stored at −80 °C until further use.
The total volume of the reaction mixture was 500 μL. […] Samples were either directly analyzed by liquid chromatography tandem mass spectrometry (LC-MS/MS) or briefly stored at −20°C until analysis.

In the next series the target is T2, human 5-HT2B receptor (Homo sapiens, UniProt P41595).
T2 construct: expressed in transfected cells; host or cells: NIH/3T3
The series can be described thus: 5-HT activation potency (IP1 accumulation), 5-HT2B. Format: cell-based. As to conditions: h5-HT2B Activation potency EC50 ± SD, NIH/3T3 cells. On the procedure:
. […] NIH/3T3 cells stably expressing the human 5-HT1A, 5-HT2A, and 5-HT2B receptors were seeded at a density of 3,000 cells (5-HT1A and 5-HT2A) or 4,000 cells (5-HT2B) in 384-well plates using Opti-MEM medium from Gibco (ThermoFisher, Life Technologies, Zug, Switzerland). Subsequently, the test compounds were introduced, and the plates were incubated for 90 min at 37°C, followed by a 60 min incubation with Anti-IP1-Cryptate and IP1-d2 at room temperature. The formation of stimulated IP1 was quantified by homogeneous time-resolved fluorescence (HTRF) measurements using a BioTek Synergy H1 microplate reader (Agilent Technologies, Basel, Switzerland). The obtained raw data for receptor activation were subjected to normalization, wherein the baseline signal was set at 0%, and the maximum signal stimulated by 5-HT at the specific receptor was established as 100%.

In the case of `CNCCc1c[nH]c2cccc(O)c12` [norpsilocin, N-methyl-4-hydroxytryptamine], the concentration giving a half-maximal response (EC50) on human 5-HT2A receptor was below 10 nM. The “signal intensity (area ratio) of metabolite” value is 0.004 ± 0.001 counts on recombinant CYP2D6 (rec. CYP2D6, t = 30 min) and 0.0010 ± 0.0003 counts on recombinant CYP2D6 (rec. CYP2D6, t = 240 min).
For `CN(C)CCc1c[nH]c2cccc(O)c12` [psilocin, 4-hydroxy-N,N-dimethyltryptamine], the EC50 at human 5-HT2B receptor is 21.5 nM and < 74.5 nM.

The record behind these values is paper PMC11089204 (Frontiers in Pharmacology, 2024).
